The values that follow are results of earlier work, collected in patent US20230265432A1, “METHODS AND COMPOSITIONS FOR TREATING ACUTE MYELOID LEUKEMIA” (Sanford Burnham Prebys Medical Discovery Institute, priority 2021, published 2023).

By UniProt entry, the sequences of proteins in these tests, tags left out. Where a name states a change or a piece, a line headed by the entry shows the natural chain unless it says otherwise.
UniProt P25440, whole entry, species assumed: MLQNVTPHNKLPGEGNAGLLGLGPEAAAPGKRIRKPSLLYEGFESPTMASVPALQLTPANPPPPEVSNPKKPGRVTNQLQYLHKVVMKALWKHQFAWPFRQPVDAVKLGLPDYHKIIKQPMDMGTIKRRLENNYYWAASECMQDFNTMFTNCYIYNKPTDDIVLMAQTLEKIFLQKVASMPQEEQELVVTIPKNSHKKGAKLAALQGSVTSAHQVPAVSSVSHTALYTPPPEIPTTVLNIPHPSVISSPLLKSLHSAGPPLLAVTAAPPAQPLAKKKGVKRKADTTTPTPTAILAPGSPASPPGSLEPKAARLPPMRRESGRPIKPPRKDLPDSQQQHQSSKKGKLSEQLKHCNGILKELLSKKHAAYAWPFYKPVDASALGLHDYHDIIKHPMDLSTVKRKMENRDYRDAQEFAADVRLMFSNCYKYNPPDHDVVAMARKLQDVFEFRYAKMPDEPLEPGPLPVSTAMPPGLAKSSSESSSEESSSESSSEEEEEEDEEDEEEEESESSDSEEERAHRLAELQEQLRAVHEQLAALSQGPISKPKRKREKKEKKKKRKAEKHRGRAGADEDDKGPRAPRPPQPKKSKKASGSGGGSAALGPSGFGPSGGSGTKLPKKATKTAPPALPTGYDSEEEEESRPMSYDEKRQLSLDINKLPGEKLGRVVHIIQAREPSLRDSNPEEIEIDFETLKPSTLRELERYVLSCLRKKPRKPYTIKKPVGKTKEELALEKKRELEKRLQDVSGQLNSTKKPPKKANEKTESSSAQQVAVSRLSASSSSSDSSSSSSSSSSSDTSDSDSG
UniProt Q15059, whole entry, species assumed: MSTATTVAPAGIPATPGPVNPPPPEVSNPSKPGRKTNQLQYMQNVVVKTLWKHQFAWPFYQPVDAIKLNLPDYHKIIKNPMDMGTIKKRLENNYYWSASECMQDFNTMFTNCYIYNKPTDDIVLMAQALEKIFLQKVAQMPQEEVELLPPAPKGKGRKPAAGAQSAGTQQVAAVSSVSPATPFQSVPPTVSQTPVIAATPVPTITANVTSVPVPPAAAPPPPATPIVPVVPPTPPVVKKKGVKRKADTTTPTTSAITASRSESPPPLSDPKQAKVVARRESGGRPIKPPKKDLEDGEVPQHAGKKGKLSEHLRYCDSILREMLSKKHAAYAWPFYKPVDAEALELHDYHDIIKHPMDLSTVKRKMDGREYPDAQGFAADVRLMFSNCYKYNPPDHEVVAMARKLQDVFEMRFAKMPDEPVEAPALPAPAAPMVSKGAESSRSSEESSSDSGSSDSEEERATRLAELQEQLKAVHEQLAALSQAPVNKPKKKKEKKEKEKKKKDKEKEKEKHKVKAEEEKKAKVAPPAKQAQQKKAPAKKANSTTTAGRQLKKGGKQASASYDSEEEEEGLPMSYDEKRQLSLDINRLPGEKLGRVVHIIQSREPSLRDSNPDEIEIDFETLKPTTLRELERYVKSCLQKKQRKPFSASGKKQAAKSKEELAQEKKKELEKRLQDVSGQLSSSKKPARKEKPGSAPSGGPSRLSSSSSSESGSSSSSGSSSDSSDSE
UniProt P23526: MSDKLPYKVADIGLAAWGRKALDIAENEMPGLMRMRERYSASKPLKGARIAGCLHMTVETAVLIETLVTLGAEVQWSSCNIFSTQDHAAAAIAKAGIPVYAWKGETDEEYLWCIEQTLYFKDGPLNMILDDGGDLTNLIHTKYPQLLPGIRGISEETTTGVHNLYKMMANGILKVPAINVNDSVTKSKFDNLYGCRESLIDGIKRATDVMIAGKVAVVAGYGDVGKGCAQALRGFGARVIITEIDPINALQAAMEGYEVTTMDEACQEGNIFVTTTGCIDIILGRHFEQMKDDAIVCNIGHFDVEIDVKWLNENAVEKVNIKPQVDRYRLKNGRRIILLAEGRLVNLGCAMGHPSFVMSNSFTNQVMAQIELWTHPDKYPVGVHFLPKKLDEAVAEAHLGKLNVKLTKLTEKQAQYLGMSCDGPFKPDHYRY

Targets include EGFR (Homo sapiens, UniProt P00533); BRD2 (Homo sapiens, UniProt P25440); BRD3 (Homo sapiens, UniProt Q15059).
Settings in all cases: cited from earlier work
Data set [1] has as its target S-adenosylhomocysteine hydrolase (Homo sapiens, UniProt P23526).

Usually Ki stands for the dissociation constant of the complex between target and ligand, obtained from inhibition or displacement. For the substance (−)-Neplanocin A, the Ki in data set [1] was 8.39 nM.

By IC50 is commonly meant the concentration needed to halve the response being measured. As for AG-490 (Tyrphostin B42), the IC50 at EGFR was 100 nM. Take I-BET151 (GSK1210151A): the IC50 was 500 nM at BRD2 and 250 nM on BRD3.
